# US20230340011A1 (Asteroid Therapeutics, priority 2022, published 2023)
# Protein sequences, listed by entry. Tags and fused reporters are not part of them.
# UniProt P55055, whole entry: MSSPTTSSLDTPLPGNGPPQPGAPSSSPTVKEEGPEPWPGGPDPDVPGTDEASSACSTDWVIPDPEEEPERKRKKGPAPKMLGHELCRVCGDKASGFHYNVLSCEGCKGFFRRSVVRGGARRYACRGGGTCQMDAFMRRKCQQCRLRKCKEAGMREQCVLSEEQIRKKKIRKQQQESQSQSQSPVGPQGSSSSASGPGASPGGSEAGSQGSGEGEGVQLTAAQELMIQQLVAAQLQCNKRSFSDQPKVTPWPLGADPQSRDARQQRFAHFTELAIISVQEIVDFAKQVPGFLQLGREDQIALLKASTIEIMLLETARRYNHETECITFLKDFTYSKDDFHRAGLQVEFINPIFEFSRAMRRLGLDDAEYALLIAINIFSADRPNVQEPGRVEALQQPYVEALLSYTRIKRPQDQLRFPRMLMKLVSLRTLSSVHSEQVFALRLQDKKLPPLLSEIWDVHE
# How the values were obtained:
# SREBP-2 = SREBP-2 (Homo sapiens (Human), UniProt Q12772); test: In vitro assay SREBP-2: PathHunter U2OS SREBP-2 Nuclear Translocation Cell Line, U18666A-stimulated; assay type: cell-based
# LXRβ = LXRβ (Homo sapiens (Human), UniProt P55055); test: In vitro assay LXRβ: PathHunter NHR CHO cells, LXRβ / Steroid Receptor Co-activator Peptide enzyme fragment complementation; assay type: cell-based
# Protocol: PathHunter NHR CHO cells stably transfected with tagged full-length human LXRβ and a nuclear fusion protein containing Steroid Receptor Co-activator Peptide (SRCP). The full-length human LXRβ was tagged with the ProLink™ component of the DiscoverX Enzyme Fragment Complementation (EFC) system and the SRCP domain is fused to the enzyme acceptor component (EA) expressed in the nucleus. Cells were seeded in a total volume of 20 μL into white walled, 384-well microplates and incubated at 37° C. overnight prior to testing. Assay media contained charcoal-dextran filtered serum to reduce the level of hormones present. Final assay vehicle concentration was 1%. […] Microplates were read following signal generation with a PerkinElmer Envision instrument for chemiluminescent signal detection.
# [1] = PathHunter U2OS SREBP-2 nuclear translocation cells, U18666A 10 μM, overnight (16 hours), read-out: SREBP-2 IC50
# [2] = PathHunter NHR CHO cells, full-length human LXRβ and SRCP, chemiluminescent signal, read-out: LXRβ PPI
Compound,IC50 (SREBP-2; [1]),IC50 (SREBP-2; read-out: SREBP-2 IC50),other results
"C[C@H](CCC(=O)N1CCC(C)(O)CC1)[C@H]1CC[C@H]2[C@@H]3CC=C4C[C@@H](O)CC[C@]4(C)[C@H]3CC[C@]12C [Example 6, (R)-4-((3S,8S,9S,10R,13R,14S,17R)-3-hydroxy-10,13-dimethyl-2,3,4,7,8,9,10,11,12,13,14,15,16,17-tetradecahydro-1H-cyclopenta[a]phenanthren-17-yl)-1-(4-hydroxy-4-methylpiperidin-1-yl)pentan-1-one]",< 250 nM,–,–
"C[C@H](CCC(=O)N1CCS(=O)(=O)CC1)[C@H]1CC[C@H]2[C@@H]3CC=C4C[C@@H](O)CC[C@]4(C)[C@H]3CC[C@]12C [Example 9, (R)-1-(1,1-dioxidothiomorpholino)-4-((3S,8S,9S,10R,13R,14S,17R)-3-hydroxy-10,13-dimethyl-2,3,4,7,8,9,10,11,12,13,14,15,16,17-tetradecahydro-1H-cyclopenta[a]phenanthren-17-yl)pentan-1-one]",< 250 nM,–,EC50 (LXRβ): > 10000 nM
"C[C@H](CCC(=O)N(C)OC1CC1)[C@H]1CC[C@H]2[C@@H]3CC=C4C[C@@H](O)CC[C@]4(C)[C@H]3CC[C@]12C [Example 37, (R)—N-cyclopropoxy-4-((3S,8S,9S,10R,13R,14S,17R)-3-hydroxy-10,13-dimethyl-2,3,4,7,8,9,10,11,12,13,14,15,16,17-tetradecahydro-1H-cyclopenta[a]phenanthren-17-yl)-N-methylpentanamide]",–,250 to 1000 nM,EC50 (LXRβ): 250 to 1000 nM
"C[C@H](CCC(=O)N(C)C)[C@H]1CC[C@H]2[C@@H]3CC=C4C[C@@H](O)C[C@H](O)[C@]4(C)[C@H]3CC[C@]12C [Example 123, (R)-4-((1S,3R,8S,9S,10R,13R,14S,17R)-1,3-dihydroxy-10,13-dimethyl-2,3,4,7,8,9,10,11,12,13,14,15,16,17-tetradecahydro-1H-cyclopenta[a]phenanthren-17-yl)-N,N-dimethylpentanamide]",–,> 10000 nM,–
"C[C@H](CCC(=O)N1CC[C@H](CO)C1)[C@H]1CC[C@H]2[C@@H]3CC=C4C[C@@H](O)CC[C@]4(C)[C@H]3CC[C@]12C [Example 233, (4R)-4-[(1R,3aS,3bS,7S,9aR,9bS,11aR)-7-hydroxy-9a,11a-dimethyl-1H,2H,3H,3aH,3bH,4H,6H,7H,8H,9H,9aH,9bH,10H,11H,11aH-cyclopenta[a]phenanthren-1-yl]-1-[(3S)-3-(hydroxymethyl)pyrrolidin-1-yl]pentan-1-one]",< 250 nM,–,–
"C[C@H](CCC(=O)N1CC[C@@H](CO)C1)[C@H]1CC[C@H]2[C@@H]3CC=C4C[C@@H](O)CC[C@]4(C)[C@H]3CC[C@]12C [Example 234, (R)-4-((3S,8S,9S,10R,13R,14S,17R)-3-hydroxy-10,13-dimethyl-2,3,4,7,8,9,10,11,12,13,14,15,16,17-tetradecahydro-1H-cyclopenta[a]phenanthren-17-yl)-1-((R)-3-(hydroxymethyl)pyrrolidin-1-yl)pentan-1-one]",< 250 nM,–,–
"C[C@H](CCC(=O)N(C)CCc1ccccn1)[C@H]1CC[C@H]2[C@@H]3CC=C4C[C@@H](O)CC[C@]4(C)[C@H]3CC[C@]12C [Example 293, (4R)-4-[(1R,3aS,3bS,7S,9aR,9bS,11aR)-7-hydroxy-9a,11a-dimethyl-1H,2H,3H,3aH,3bH,4H,6H,7H,8H,9H,9aH,9bH,10H,11H,11aH-cyclopenta[a]phenanthren-1-yl]-N-methyl-N-[2-(pyridin-2-yl)ethyl]pentanamide]",< 250 nM,–,–
"C[C@@H](CCC(=O)N(C)[C@H]1CC[C@@H](C(=O)N(C)C)CC1)[C@H]1CC[C@H]2[C@@H]3CC=C4C[C@@H](O)CC[C@]4(C)[C@H]3CC[C@]12C [Example 297, (1S,4s)-4-((R)-4-((3S,8S,9S,10R,13R,14S,17R)-3-hydroxy-10,13-dimethyl-2,3,4,7,8,9,10,11,12,13,14,15,16,17-tetradecahydro-1H-cyclopenta[a]phenanthren-17-yl)-N-methylpentanamido)-N,N-dimethylcyclohexane-1-carboxamide]",–,< 250 nM,EC50 (LXRβ; [2]): > 10000 nM
"C[C@H](CCC(=O)N1CCN(C(=O)C2CC2)CC1)[C@H]1CC[C@H]2[C@@H]3CC=C4C[C@@H](O)CC[C@]4(C)[C@H]3CC[C@]12C [Example 314, (4R)-4-[(1R,3aS,3bS,7S,9aR,9bS,11aR)-7-hydroxy-9a,11a-dimethyl-1H,2H,3H,3aH,3bH,4H,6H,7H,8H,9H,9aH,9bH,10H,11H,11aH-cyclopenta[a]phenanthren-1-yl]-1-(4-cyclopropanecarbonylpiperazin-1-yl)pentan-1-one]",< 250 nM,–,–
"CC(C)C(=O)N1CCN(C(=O)CC[C@@H](C)[C@H]2CC[C@H]3[C@@H]4CC=C5C[C@@H](O)CC[C@]5(C)[C@H]4CC[C@]23C)CC1 [Example 315, (R)-4-((3S,8S,9S,10R,13R,14S,17R)-3-hydroxy-10,13-dimethyl-2,3,4,7,8,9,10,11,12,13,14,15,16,17-tetradecahydro-1H-cyclopenta[a]phenanthren-17-yl)-1-(4-isobutyrylpiperazin-1-yl)pentan-1-one]",< 250 nM,–,–
"C[C@H](CCC(=O)N1CCCS(=O)(=O)CC1)[C@H]1CC[C@H]2[C@@H]3CC=C4C[C@@H](O)CC[C@]4(C)[C@H]3CC[C@]12C [Example 355, {[(1R,3aS,3bS,5S,5aR,7R,9aR,9bS,11aR)-7-[(tert-butyldimethylsilyl)oxy]-9a,11a-dimethyl-1-[(2R,3E)-6-methyl-5-(trifluoromethyl)-5-[(trimethylsilyl)oxy]hept-3-en-2-yl]-hexadecahydro-1H-cyclopenta[a]phenanthren-5-yl]oxy}(tert-butyl)dimethylsilane]",–,250 to 1000 nM,EC50 (LXRβ; [2]): > 10000 nM
"C[C@H](CCC(=O)N1CCC(O)(C2CCCCC2)CC1)[C@H]1CC[C@H]2[C@@H]3CC=C4C[C@@H](O)CC[C@]4(C)[C@H]3CC[C@]12C [Example 383, (R)-1-(4-cyclohexyl-4-hydroxypiperidin-1-yl)-4-((3S,8S,9S,10R,13R,14S,17R)-3-hydroxy-10,13-dimethyl-2,3,4,7,8,9,10,11,12,13,14,15,16,17-tetradecahydro-1H-cyclopenta[a]phenanthren-17-yl)pentan-1-one]",< 250 nM,–,EC50 (LXRβ): > 10000 nM
"C[C@H](CCC(=O)N1CCC(O)(C#N)CC1)[C@H]1CC[C@H]2[C@@H]3CC=C4C[C@@H](O)CC[C@]4(C)[C@H]3CC[C@]12C [Example 384, 1-[(4R)-4-[(1R,3aS,3bS,7S,9aR,9bS,11aR)-7-hydroxy-9a,11a-dimethyl-1H,2H,3H,3aH,3bH,4H,6H,7H,8H,9H,9aH,9bH,10H,11H,11aH-cyclopenta[a]phenanthren-1-yl]pentanoyl]-4-hydroxypiperidine-4-carbonitrile]",–,–,IC50 (SREBP-2; SREBP-2 IC50): < 250 nM; EC50 (LXRβ): < 250 nM
"C[C@H](CCC(=O)N1CCC(O)(C2CCCCC2)CC1)[C@H]1CC[C@H]2[C@@H]3CC=C4C[C@@H](O)CC[C@]4(C)[C@H]3CC[C@]12C [Example 507, (R)-1-(4-cyclohexyl-4-hydroxypiperidin-1-yl)-4-((3S,8S,9S,10R,13R,14S,17R)-3-hydroxy-10,13-dimethyl-2,3,4,7,8,9,10,11,12,13,14,15,16,17-tetradecahydro-1H-cyclopenta[a]phenanthren-17-yl)pentan-1-one]",–,< 250 nM,–
"C[C@H](CCC(=O)N1CCC(C)(CN2CCOC(C)(C)C2=O)CC1)[C@H]1CC[C@H]2[C@@H]3CC=C4C[C@@H](O)CC[C@]4(C)[C@H]3CC[C@]12C [Example 523, 4-((1-((R)-4-((3S,8S,9S,10R,13R,14S,17R)-3-hydroxy-10,13-dimethyl-2,3,4,7,8,9,10,11,12,13,14,15,16,17-tetradecahydro-1H-cyclopenta[a]phenanthren-17-yl)pentanoyl)-4-methylpiperidin-4-yl)methyl)-2,2-dimethylmorpholin-3-one]",–,–,EC50 (LXRβ; read-out: LXRβ PPI): 250 to 1000 nM
"C[C@H](CCC(=O)Nc1ccncc1)[C@H]1CC[C@H]2[C@@H]3CC=C4C[C@@H](O)CC[C@]4(C)[C@H]3CC[C@]12C [Example 547, (4R)-4-[(1R,3aS,3bS,7S,9aR,9bS,11aR)-7-hydroxy-9a,11a-dimethyl-1H,2H,3H,3aH,3bH,4H,6H,7H,8H,9H,9aH,9bH,10H,11H,11aH-cyclopenta[a]phenanthren-1-yl]-N-(pyridin-4-yl)pentanamide]",–,< 250 nM,–
"COC(=S)N1CCN(C(=O)CC[C@@H](C)[C@H]2CC[C@H]3[C@@H]4CC=C5C[C@@H](O)CC[C@]5(C)[C@H]4CC[C@]23C)CC1 [Example 549, O-methyl4-((R)-4-((3S,8S,9S,10R,13R,14S,17R)-3-hydroxy-10,13-dimethyl-2,3,4,7,8,9,10,11,12,13,14,15,16,17-tetradecahydro-1H-cyclopenta[a]phenanthren-17-yl)pentanoyl)piperazine-1-carbothioate]",–,< 250 nM,–
"CNc1nccc(N2CCN(C(=O)CC[C@@H](C)[C@H]3CC[C@H]4[C@@H]5CC=C6C[C@@H](O)CC[C@]6(C)[C@H]5CC[C@]34C)CC2)n1 [Example 561, (R)-4-((3S,8S,9S,10R,13R,14S,17R)-3-hydroxy-10,13-dimethyl-2,3,4,7,8,9,10,11,12,13,14,15,16,17-tetradecahydro-1H-cyclopenta[a]phenanthren-17-yl)-1-(4-(2-(methylamino)pyrimidin-4-yl)piperazin-1-yl)pentan-1-one]",–,< 250 nM,–

# Like-named read-outs stand apart in the source and are kept apart here.
